In ChEMBL document CHEMBL4376840, “Application of Fluorine- and Nitrogen-Walk Approaches: Defining the Structural and Functional Diversity of 2-Phenylindole Class of Cannabinoid 1 Receptor Positive Allosteric Modulators” (J Med Chem, 2020):
Activity calls are given as the source filed them. The calls are words filed in the database; no cut-off is given here.

By UniProt entry, the sequences of proteins in these tests, tags left out.
UniProt P21554, whole entry: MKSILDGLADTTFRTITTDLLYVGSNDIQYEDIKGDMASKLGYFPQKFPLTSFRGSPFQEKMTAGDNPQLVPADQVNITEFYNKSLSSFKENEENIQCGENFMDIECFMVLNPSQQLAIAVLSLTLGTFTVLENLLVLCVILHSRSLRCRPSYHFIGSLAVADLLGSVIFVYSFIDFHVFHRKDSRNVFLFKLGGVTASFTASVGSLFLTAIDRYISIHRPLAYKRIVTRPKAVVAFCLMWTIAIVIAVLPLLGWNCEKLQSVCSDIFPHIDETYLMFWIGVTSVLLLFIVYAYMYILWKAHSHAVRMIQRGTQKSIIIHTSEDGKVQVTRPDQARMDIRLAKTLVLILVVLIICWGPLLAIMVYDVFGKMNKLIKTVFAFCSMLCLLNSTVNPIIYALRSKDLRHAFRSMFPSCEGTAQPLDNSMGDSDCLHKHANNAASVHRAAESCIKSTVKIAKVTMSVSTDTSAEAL
UniProt P20272, whole entry: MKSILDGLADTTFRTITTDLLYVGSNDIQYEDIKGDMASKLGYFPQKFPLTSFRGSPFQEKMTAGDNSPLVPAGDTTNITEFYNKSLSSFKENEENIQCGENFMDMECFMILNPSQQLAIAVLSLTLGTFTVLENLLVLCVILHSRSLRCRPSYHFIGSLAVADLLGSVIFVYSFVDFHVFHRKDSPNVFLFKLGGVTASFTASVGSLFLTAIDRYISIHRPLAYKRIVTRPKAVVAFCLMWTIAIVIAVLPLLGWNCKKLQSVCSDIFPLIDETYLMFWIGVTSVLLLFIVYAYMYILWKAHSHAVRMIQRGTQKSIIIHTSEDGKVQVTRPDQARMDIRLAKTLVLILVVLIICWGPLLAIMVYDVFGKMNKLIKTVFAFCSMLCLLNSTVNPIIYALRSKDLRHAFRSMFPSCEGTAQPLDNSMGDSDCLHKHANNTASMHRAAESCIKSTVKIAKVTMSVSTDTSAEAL

Key:
Cannabinoid receptor 1 [1] = biological target: T1, Cannabinoid receptor 1 (Homo sapiens, UniProt P21554); experiment: Positive allosteric modulatory activity at human CB1R expressed in CHO-K1 cells assessed as increase in CP55940-induced inhibition of forskolin-stimulated cAMP production after 30 mins in presence of CP55940 at EC20 concentration by hit-hunter cAMP assay relative to control; type: functional, cell-based
Method in brief: (§1)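 Read-out was chemiluminescent cAMP detection, fit with a variable-slope 4-parameter regression. n = 1–3 independent experiments in duplicate.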

Cannabinoid receptor 1 [2] = biological target: T1, Cannabinoid receptor 1; experiment: Positive allosteric modulatory activity at human CB1R expressed in CHO-K1 cells assessed as increase in CP55940-induced beta-arrestin2 recruitment after 90 mins in presence of CP55940 at EC20 concentration by pathhunter beta-arrestin assay relative to control; type: cell-based
Method in brief: (§2)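 Read-out was chemiluminescent β-arrestin2 recruitment, fit with a 4-parameter regression. n = 1–3 independent experiments in duplicate.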

Cannabinoid receptor 1 [3] = biological target: T1, Cannabinoid receptor 1; experiment: (§3) Positive allosteric modulatory activity at human CB1R expressed in CHO-K1 cells assessed as increase in CP55940-induced inhibition of forskolin-induced cAMP accumulation after 90 mins in presence of 100 nM CP55940 by hit-hunter cAMP assay; type: functional, cell-based
Method in brief: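 Uses the HitHunter CHO-K1 hCB1R cAMP set-up above. Data normalized to % forskolin, 4-parameter fit. n ≥ 6, triplicate.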

Cannabinoid receptor 1 [4] = biological target: T1, Cannabinoid receptor 1; experiment: Positive allosteric modulation activity at human CB1 receptor expressed in CHO cell membranes assessed as increase in [3H]CP55940 binding at 1 uM measured after 90 mins in presence of [35S]GTPgammaS by liquid scintillation analysis; type: functional
Cannabinoid receptor 1 [5] = biological target: T1, Cannabinoid receptor 1; experiment: Positive allosteric modulatory activity at human CB1R expressed in CHO-K1 cells assessed as increase in CP55940-induced beta arrestin2 recruitment after 90 mins in presence of 100 nM CP55940 by pathhunter beta-arrestin assay; type: cell-based
Cannabinoid receptor 1 [6] = biological target: T1, Cannabinoid receptor 1; experiment: Agonist activity at human CB1 receptor expressed in CHO cell membranes assessed as increase in G-protein coupling by measuring [35S]GTPgammaS binding after 90 mins in presence of [35S]GTPgammaS by liquid scintillation analysis; type: functional
Method in brief: (§4)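 [35S]GTPγS binding to G protein in membranes from CHO cells stably expressing human CB1R, with test compound given alone. Data fit to a variable-slope 4-parameter nonlinear regression. n = 4–6 independent experiments in duplicate.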

Cannabinoid receptor 1 [7] = biological target: T1, Cannabinoid receptor 1; experiment: Allosteric agonist activity at human CB1R expressed in CHO-K1 cells assessed as inhibition of forskolin-induced cAMP accumulation after 90 mins by hit-hunter cAMP assay; type: functional, cell-based
Method in brief: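 HitHunter CHO-K1 hCB1R cells (20,000/well) were held overnight in Opti-MEM with 1% FBS. They were then co-treated at 37°C with 10 μM forskolin plus compound alone (0.10 nM – 10 μM) for 90 min. Chemiluminescent cAMP detection followed (two 60-min room-temperature steps). Data as % forskolin, variable-slope 4-parameter fit; Emin is the lower plateau. n ≥ 6, triplicate.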

Cannabinoid receptor 1 [8] = biological target: T1, Cannabinoid receptor 1; experiment: as §3, with “accumulation by measuring cAMP accumulation at minimal level at higher concentration” for “accumulation”, “assay relative to forskolin” for “assay”; type: functional, cell-based
Method in brief: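 Uses the HitHunter CHO-K1 hCB1R cAMP set-up above. […] Data normalized to % forskolin, 4-parameter fit. n ≥ 6, triplicate.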

Cannabinoid receptor 1 [9] = biological target: T1, Cannabinoid receptor 1; experiment: Displacement of [3H]SR141716A from human CB1R receptor expressed in CHO cell membranes after 2 hrs by liquid scintillation spectrometry analysis
[10] = biological target: Cannabinoid receptor 1 (Rattus norvegicus) (UniProt P20272); experiment: Positive allosteric modulatory activity at N-terminal GFP-tagged rat CB1R receptor expressed in HEK293 cells assessed as downward shift in CP55940 dependent concentration response curve for inhibition of forskolin-induced cAMP accumulation after 30 mins by TR-FRET assay; type: functional, cell-based
Cannabinoid receptor 1 [11] = biological target: T1, Cannabinoid receptor 1; experiment: Positive allosteric modulatory activity at human CB1R expressed in CHO-K1 cells assessed as maximal increase in CP55940-induced beta arrestin2 recruitment after 90 mins in presence of 100 nM CP55940 by pathhunter beta-arrestin assay relative to CP55940; type: cell-based
Cannabinoid receptor 1 [12] = biological target: T1, Cannabinoid receptor 1; experiment: Allosteric agonist activity at human CB1R expressed in CHO-K1 cells assessed as increase in beta arrestin2 recruitment after 90 mins by pathhunter beta-arrestin assay relative to CP55940; type: cell-based
Method in brief: (§5)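 PathHunter CHO-K1 hCB1R cells (20,000/well) were held overnight in Opti-MEM with 1% FBS. Compound alone (0.10 nM – 10 μM) was given at 37°C for 90 min, then detection solution for 60 min at room temperature and chemiluminescence was read.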

Cannabinoid receptor 1 [13] = biological target: Cannabinoid receptor 1 (Rattus norvegicus, UniProt P20272); experiment: Allosteric agonist activity at N-terminal GFP-tagged rat CB1R expressed in HEK293 cells assessed as inhibition of forskolin-induced cAMP production after 30 min by TR-FRET assay; type: functional, cell-based
Method in brief: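 HEK293 cells stably expressing N-terminal GFP-tagged rat CB1R were trypsin-EDTA dissociated and resuspended in HBSS with 0.1% BSA and 0.5mM IBMX at 500 cells/well. Cells got 5μM forskolin plus compound (1 pM – 10 μM) alone for 30 min. 4-parameter fit; Emin is the lower plateau. n ≥ 3, triplicate.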

Cannabinoid receptor 1 [14] = biological target: T1, Cannabinoid receptor 1; experiment: Positive allosteric modulatory activity at human CB1R expressed in CHO-K1 cells assessed as increase in CP55940-induced beta-arrestin2 recruitment after 90 mins in presence of CP55940 at EC20 concentration by pathhunter beta-arrestin assay; type: cell-based; method in brief: as §2
Cannabinoid receptor 1 [15] = biological target: T1, Cannabinoid receptor 1; experiment: Positive allosteric modulatory activity at human CB1R expressed in CHO-K1 cells assessed as increase in CP55940-induced inhibition of forskolin-stimulated cAMP production after 30 mins in presence of CP55940 at EC20 concentration by hit-hunter cAMP assay; type: functional, cell-based; method in brief: as §1
[16] = biological target: Cannabinoid receptor 1 (Rattus norvegicus) (UniProt P20272); experiment: Positive allosteric modulatory activity at N-terminal GFP-tagged rat CB1R receptor expressed in HEK293 cells assessed as leftward shift in CP55940 dependent concentration response curve for inhibition of forskolin-induced cAMP accumulation after 30 mins by TR-FRET assay; type: functional, cell-based
Cannabinoid receptor 1 [17] = biological target: T1, Cannabinoid receptor 1; experiment: Allosteric agonist activity at human CB1R expressed in CHO-K1 cells assessed as increase in beta arrestin2 recruitment after 90 mins by pathhunter beta-arrestin assay; type: cell-based; method in brief: as §5
Cannabinoid receptor 1 [18] = biological target: T1, Cannabinoid receptor 1; experiment: Displacement of [3H]CP55940 from human CB1R receptor expressed in CHO cell membranes after 60 mins by liquid scintillation spectrometry analysis
Cannabinoid receptor 1 [19] = biological target: T1, Cannabinoid receptor 1; experiment: Agonist activity at human CB1 receptor expressed in CHO cell membranes assessed as increase in G-protein coupling by measuring [35S]GTPgammaS binding after 90 mins in presence of [35S]GTPgammaS by liquid scintillation analysis relative to control; type: functional; method in brief: as §4

SMILES: O=[N+]([O-])CC(c1ccccc1)c1c(-c2cccc(F)c2)[nH]c2ccccc12 (stereo not given)
- Emax (Cannabinoid receptor 1 [1]): 140%
- Emax (Cannabinoid receptor 1 [2]): 55%

SMILES: O=[N+]([O-])CC(c1ccccc1F)c1c(-c2ccccc2)[nH]c2cc(F)ccc12 (stereo not given)
- Emax (Cannabinoid receptor 1 [1]): 110%
- Emax (Cannabinoid receptor 1 [2]): 54%

SMILES: O=[N+]([O-])CC(c1ncccc1F)c1c(-c2ccccc2)[nH]c2ccccc12 (stereo not given)
- EC50 (Cannabinoid receptor 1 [3]): 0.014 µM
- Activity (Cannabinoid receptor 1 [4]): Active
- Emax (Cannabinoid receptor 1 [1]): 95%
- EC50 (Cannabinoid receptor 1 [5]): > 10 µM
- EC50 (Cannabinoid receptor 1 [6]): 0.17 µM
- EC50 (Cannabinoid receptor 1 [7]): > 10 µM
- Emin (Cannabinoid receptor 1 [8]): 11%
- Ki (Cannabinoid receptor 1 [9]): 2.3 µM
- Emax (Cannabinoid receptor 1 [2]): -1.4%
- Activity [10]: Dose-dependent effect
- Emax (Cannabinoid receptor 1 [11]): 24%
- Emax (Cannabinoid receptor 1 [12]): 23%
- EC50 (Cannabinoid receptor 1 [13]): 0.69 µM
- EC50 (Cannabinoid receptor 1 [14]): > 10 µM
- EC50 (Cannabinoid receptor 1 [15]): 1.9 µM
- Activity [16]: Dose-dependent effect
- EC50 (Cannabinoid receptor 1 [17]): 3.3 µM
- Ki (Cannabinoid receptor 1 [18]): 0.11 µM
- Emax (Cannabinoid receptor 1 [19]): 22%

SMILES: O=[N+]([O-])CC(c1ccccc1F)c1c(-c2ccccc2)[nH]c2c(F)cccc12 (stereo not given)
- Emax (Cannabinoid receptor 1 [1]): 100%
- Emax (Cannabinoid receptor 1 [2]): 76%
